Assay [1] can be described thus: total CFTR protein upregulators, primary screen, cell-based, HeLa F508del-CFTR, immunofluorescence, viability (AID 1224863).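 For fold increase: total CFTR protein by anti-CFTR immunofluorescence in fixed cells.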 The note with it: 24 h, stronger effect = higher value; min viability: measured here: HeLa viability, alamarBlue, dose 20, library dosed in µg/mL unless noted; viability: measured here: primary viability 10 ug/mL, library dosed in µg/mL unless noted.
The target of assay [2] is Cystic fibrosis transmembrane conductance regulator (Homo sapiens) (UniProt P13569). Described as above. The note with it: 24 h; fold increase: measured here: primary screen 10 ug/mL, library dosed in µg/mL, stronger effect = higher value unless noted; max fold increase: dose 10, library dosed in µg/mL, stronger effect = higher value unless noted; outcome: library dosed in µg/mL unless noted.

By UniProt entry, the sequences of proteins in these tests, tags left out. Chains listed by the source or under a name are the forms on record and can include a tag or linker.
UniProt P13569, with tags, fused parts or gaps F508del: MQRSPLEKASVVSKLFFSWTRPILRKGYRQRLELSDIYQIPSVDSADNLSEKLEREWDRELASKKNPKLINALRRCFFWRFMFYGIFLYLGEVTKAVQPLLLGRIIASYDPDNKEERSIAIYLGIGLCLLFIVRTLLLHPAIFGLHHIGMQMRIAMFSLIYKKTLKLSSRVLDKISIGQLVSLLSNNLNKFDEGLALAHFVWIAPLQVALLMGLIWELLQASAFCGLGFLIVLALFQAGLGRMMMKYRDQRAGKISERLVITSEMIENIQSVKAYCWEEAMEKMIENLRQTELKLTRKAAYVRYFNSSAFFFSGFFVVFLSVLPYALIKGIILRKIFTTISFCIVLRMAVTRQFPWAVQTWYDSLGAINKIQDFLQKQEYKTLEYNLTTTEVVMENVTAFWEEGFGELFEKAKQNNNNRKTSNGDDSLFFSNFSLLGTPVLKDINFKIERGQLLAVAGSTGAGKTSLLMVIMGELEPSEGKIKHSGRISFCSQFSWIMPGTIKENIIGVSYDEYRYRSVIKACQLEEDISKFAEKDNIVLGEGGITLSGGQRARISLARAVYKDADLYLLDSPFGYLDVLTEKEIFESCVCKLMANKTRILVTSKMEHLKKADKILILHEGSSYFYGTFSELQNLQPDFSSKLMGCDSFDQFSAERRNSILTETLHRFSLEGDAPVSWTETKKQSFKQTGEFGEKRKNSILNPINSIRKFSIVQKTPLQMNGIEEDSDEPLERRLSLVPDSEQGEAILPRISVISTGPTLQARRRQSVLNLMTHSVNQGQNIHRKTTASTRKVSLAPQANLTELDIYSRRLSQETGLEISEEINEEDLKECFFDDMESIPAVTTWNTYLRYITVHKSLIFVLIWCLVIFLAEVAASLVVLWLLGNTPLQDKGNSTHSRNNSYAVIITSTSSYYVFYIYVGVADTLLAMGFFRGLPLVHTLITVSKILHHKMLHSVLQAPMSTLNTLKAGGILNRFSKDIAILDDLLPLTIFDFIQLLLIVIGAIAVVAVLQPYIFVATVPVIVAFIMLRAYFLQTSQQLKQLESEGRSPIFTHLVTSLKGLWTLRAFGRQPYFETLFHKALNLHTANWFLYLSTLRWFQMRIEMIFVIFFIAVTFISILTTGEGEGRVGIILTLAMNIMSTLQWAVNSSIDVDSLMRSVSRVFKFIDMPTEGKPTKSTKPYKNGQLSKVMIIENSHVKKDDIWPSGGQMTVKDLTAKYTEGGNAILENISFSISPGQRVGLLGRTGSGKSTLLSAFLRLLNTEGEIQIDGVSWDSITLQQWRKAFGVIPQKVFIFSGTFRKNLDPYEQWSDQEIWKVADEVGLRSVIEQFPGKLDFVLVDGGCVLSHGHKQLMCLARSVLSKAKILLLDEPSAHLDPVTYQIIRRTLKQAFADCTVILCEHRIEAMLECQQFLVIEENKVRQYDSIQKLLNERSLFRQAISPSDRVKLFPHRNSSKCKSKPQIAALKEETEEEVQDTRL

Data on 47 compounds can be found in PubChem BioAssay AID1224863 (Southern Research Institute, 2016).

In all, about 10,000 compounds went through this assay and about 15 (0.1%) were called active.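 Rule for the calls: active = highest signal at least 8 times the median of untreated cell-only control wells at some dose; inactive = the rest.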 A selection follows.

As for `CC1CCC2(CC1)NC(=O)N(CN1CCC(C(=O)c3ccc4c(c3)OCCO4)CC1)C2=O` (stereo unspecified), in assay [1], the viability stood at 97%. In assay [2], the fold increase is 1.04 and the result was inactive.
Turning to `O=C(OCCOc1ccc(Br)cc1)C1(c2cccc(F)c2)CCCC1`, the viability in assay [1] came to 77%. In addition, in assay [2], the fold increase was 0.97 and the result was inactive.
In the same order, the values of `C=CCn1c(C)cc(-c2csc(NC(=O)C3CC3)n2)c1C` are 93%, 1.02 and “inactive”.
In the same order, the values of `Cn1cc(C#N)c(=O)n(CC(=O)Nc2sccc2C(N)=O)c1=O` are 104%, 1.07 and “inactive”.
Take `O=S(=O)(Nc1ccc(Cl)c(S(=O)(=O)N2CCOCC2)c1)c1ccc2ccccc2c1`: in assay [1], the viability is 93%. In assay [2], the fold increase came to 1.11 and the compound was classed as inactive.
Regarding `Cc1cc(C(=O)COc2cc(C(F)(F)F)cc(C(F)(F)F)c2)c(C)n1Cc1ccc2c(c1)OCO2`, the viability in assay [1] was 90%. Besides, in assay [2], the fold increase turned out to be 1.11 and the compound was called inactive.
In the case of `CCCCOCCCNS(=O)(=O)c1ccc(S(=O)(=O)C(F)F)cc1`, in assay [1], the viability was determined as 80%. Moreover, in assay [2], the fold increase came out at 0.94 and the compound was called inactive.
In the same order, the values of `Cc1ccsc1C(=O)N1CCN(S(=O)(=O)N(C)C2CCCCC2)CC1` are 83%, 0.92 and “inactive”.
For the compound `O=C1c2ccccc2C(O)(c2ccc(Cl)cc2)N1CCSCc1ccco1` (stereo unspecified), the viability in assay [1] turned out to be 77%. Further, in assay [2], the fold increase worked out at 0.9 and the result was inactive.
For `Cn1cc(S(=O)(=O)NC2(c3ccc4c(c3)OCCO4)CCCC2)c(=O)n(C)c1=O`, the viability in assay [1] was determined as 94%. Further, in assay [2], the fold increase came out at 1.05 and the call was inactive.
As to `O=C(NC1CCCCCC1)C1CC=CCC1` (stereo unspecified), the viability in assay [1] came out at 96%. Besides, in assay [2], the fold increase is 1.02 and the compound was called inactive.
In the same order, the values of `O=c1c2ccccc2nnn1COc1ccccc1Cl` are 116%, 0.98 and “inactive”.
In the same order, the values of `CCOCCSc1nnc(-c2ccccc2)n1C` are 106%, 1.04 and “inactive”.
Turning to `Fc1ccc2sc(CNc3ccc4nnnn4n3)cc2c1`, in assay [1], the viability was 105%. Further, in assay [2], the fold increase came out at 1.2 and the compound was called inactive.
Consider `CCN(CC)C(=O)C(C)NC(=O)c1c(C)oc(-n2cccc2)c1C#N` (stereo unspecified), for which the viability in assay [1] is 90%. Besides, in assay [2], the fold increase was 0.95 and the result was inactive.
As to `Cc1noc(C)c1CN1CCCC(NS(C)(=O)=O)C1` (stereo unspecified), in assay [1], the viability came to 110%. Further, in assay [2], the fold increase turned out to be 1.04 and the result was inactive.
In the same order, the values of `CC(C)n1nnnc1SCc1ccc([N+](=O)[O-])cc1` are 91%, 0.94 and “inactive”.
Regarding `Clc1ccc(CN2CCN(c3ccc(Br)cn3)CC2)s1`, in assay [1], the viability was determined as 105%. Besides, in assay [2], the fold increase turned out to be 1.02 and the compound was called inactive.
In the same order, the values of `O=C(NCCc1ccccc1F)NC1CCSc2ccccc21` (stereo unspecified) are 95%, 1.02 and “inactive”.
On to `COc1ccccc1-c1noc(CSC23CC4CC(CC(C4)C2)C3)n1`, for which, in assay [1], the viability came to 70%. For the same compound, in assay [2], the fold increase came to 0.79 and the result was inactive.
As for `O=S(=O)(Nc1ccc2c(c1)OCCO2)c1cc(F)cc(F)c1`, the viability in assay [1] worked out at 97%. Also, in assay [2], the fold increase stood at 0.92 and the result was inactive.
`O=C(NCCc1ccc2c(c1)OCCO2)NCc1cccnc1OC1CCCC1`: the viability in assay [1] was 91%. In addition, in assay [2], the fold increase stood at 0.85 and the result was inactive.
In the case of `CCC1CCC2(CC1)NC(=O)N(CC(=O)NCC1CCCO1)C2=O` (stereo unspecified), the viability in assay [1] turned out to be 102%. Also, in assay [2], the fold increase came to 0.98 and the outcome was inactive.
Take `Cc1[nH]c2ccccc2c1C(=O)C(C)OC(=O)C12CC3CC(C1)CC(c1ccccc1)(C3)C2` (stereo unspecified): in assay [1], the viability stood at 85%. Moreover, in assay [2], the fold increase was 0.91 and the compound was called inactive.
On to `CC(C)c1ccc(C(NC(=O)CN2C(=O)NC(C)(c3ccc4c(c3)OCO4)C2=O)C(C)C)cc1` (stereo unspecified), for which the viability in assay [1] is 81%. In assay [2], the fold increase amounted to 0.84 and the outcome was inactive.
`Cn1nnn(CN2CCN(c3ccccc3)CC2)c1=S`: in assay [1], the viability came to 101%. In addition, in assay [2], the fold increase worked out at 1.1 and the compound was called inactive.
On to `CNc1nnc(Sc2nc3cc(C)nn3c3ccccc23)s1`, for which the viability in assay [1] was determined as 97%. Further, in assay [2], the fold increase is 1.1 and the compound was classed as inactive.
For the compound `CN(CC(=O)NC(=O)NCCC1=CCCCC1)Cc1ccc(Cl)s1`, the viability in assay [1] stood at 85%. In assay [2], the fold increase amounted to 0.92 and the compound was classed as inactive.
Take `C#CCOc1ccc(CNC(C)c2ccc(Br)cc2)cc1OCC` (stereo unspecified): the viability in assay [1] came out at 76%. For the same compound, in assay [2], the fold increase came to 0.94 and the compound was classed as inactive.
As to `CN(Cc1ccccc1Cl)Cn1ncn(-c2cccc(Cl)c2)c1=S`, the viability in assay [1] turned out to be 105%. Besides, in assay [2], the fold increase worked out at 1.04 and the compound was classed as inactive.
For `Cn1ccnc1COc1ccc(C(=O)O)cc1` the same measures were 89%, 1.02 and “inactive”.
For `Cc1cc(-c2nccn2C)c(=O)[nH]n1` the same measures were 99%, 1.08 and “inactive”.
In the same order, the values of `Cc1cc(NC(=O)N2CCN(C(=O)OC(C)(C)C)CC2)no1` are 102%, 1.12 and “inactive”.
As for `CC(C)CN1C(=O)c2ccc([N+](=O)[O-])cc2C1=O`, the viability in assay [1] worked out at 88%. For the same compound, in assay [2], the fold increase is 0.89 and the compound was classed as inactive.
As for `O=C1NC2(CCCCCC2)C(=O)N1CN1CCCCCCC1`, the viability in assay [1] amounted to 76%. Moreover, in assay [2], the fold increase amounted to 0.99 and the result was inactive.
In the same order, the values of `Cc1cccc2nc(CSc3ccc4ccccc4n3)cc(=O)n12` are 83%, 1.04 and “inactive”.
On to `O=[N+]([O-])c1cn(Cc2cn(-c3ccccc3)nc2-c2ccc(Cl)cc2)cn1`, for which, in assay [1], the viability was 103%. Besides, in assay [2], the fold increase stood at 1.3 and the compound was called inactive.
For the compound `O=C(COc1cc(Cl)c(Cl)cc1Cl)N1CCN(C(=O)C2CCCO2)CC1` (stereo unspecified), the viability in assay [1] is 99%. In assay [2], the fold increase was 0.97 and the outcome was inactive.
`CCN(CC)S(=O)(=O)c1ccc(S(=O)(=O)Nc2nc3ccccc3nc2N2CCCC2)cc1`: the viability in assay [1] worked out at 92%. Moreover, in assay [2], the fold increase was 1.04 and the compound was classed as inactive.
In the same order, the values of `Cc1nnc(COC(=O)C2=Cc3ccccc3OC2)o1` are 102%, 1.03 and “inactive”.
For `CN(C)C(=O)c1ccc(N2CCOC2=O)cc1` the same measures were 97%, 0.98 and “inactive”.
For `CCCCn1c(N)c(N(C)C(=O)CCS(=O)(=O)CC(C)C)c(=O)[nH]c1=O` the same measures were 103%, 1 and “inactive”.
As to `CN1CCC(CNC(=O)C23CC4CC(CC(Cl)(C4)C2)C3)c2ccccc21` (stereo unspecified), in assay [1], the viability worked out at 77%. Further, in assay [2], the fold increase turned out to be 1.08 and the call was inactive.
In the same order, the values of `CC(c1nc2ccccc2s1)N(C)CN1C(=O)C2CC=CCC2C1=O` (stereo unspecified) are 91%, 1.02 and “inactive”.
Turning to `COC(=O)/C=C/c1ccc(OCC(=O)c2ccc(OC(F)F)cc2)c(OC)c1`, the viability in assay [1] was found to be 94%. In addition, in assay [2], the fold increase amounted to 1.05 and the compound was called inactive.
In the same order, the values of `CCOc1c(Br)cc(CNC(C)C2CCCO2)cc1Br` (stereo unspecified) are 99%, 1.09 and “inactive”.
`Cc1cc(C(C)(C)C)ccc1Oc1ccc2nnnn2n1`: the viability in assay [1] was found to be 71%. Moreover, in assay [2], the fold increase amounted to 1 and the compound was called inactive.
